Legend:
[1] = target: WT-SERT (Rattus norvegicus, UniProt P31652); settings: 25 μg/mL digitonin
Method: After 3 × rapid washing with KRH buffer, APP^+ or ASP^+ accumulation was measured as described under “Materials and Methods”. […] These representative images were parallelly acquired from one experiment. […] After 3 × washing, ASP^+ binding to the cell membrane was measured as described under “Materials and Methods”. […] (D) The effects of MTSET on ASP^+ binding of S277C/X5C and X5C. […] After 3 × rapid washing, ASP^+ binding was measured as described under “Materials and Methods”.
The cells stably expressing SERT-WT or mutants were wet mounted on polylysine-coated glass slides and applied for indicated treatments. In brief, the cells were washed twice with 500 μL KRH buffer containing 20 mM HEPES, pH 7.4, 120 mM NaCl, 1.3 mM KCl, 2.2 mM CaCl2, 1.2 mM MgSO4, and 0.1% (w/v) glucose. APP^+ or ASP^+ accumulation was measured by adding 500 μL KRH buffer containing 2 μM APP^+ or 10 μM ASP^+ and incubating for 5 min at 22 °C. […] The extent of APP^+ or ASP^+ accumulated in the cells was determined with confocal imaging analysis.
Images were acquired at 22 °C using a 20 or 60 × water immersion objective with the Zeiss LSM 900 confocal microscope. […] APP^+ fluorescence was captured at 490–565 nm and ASP^+ fluorescence at 600–650 nm. Images were analyzed using National Institutes of Health ImageJ v1.53q. Fluorescence intensity in each cell was counted and normalized to the cell area (mean fluorescence). […]

[2] = target: T1, SERT Y107C/C109A (Rattus norvegicus, UniProt P31652, C109A/Y107C); experiment: MTSET inhibition of APP+ uptake in live cells (extracellular pathway cysteine accessibility); type: cell-based; settings: MTSET 0.01 mM, ligand 10 μM, 22 °C, 15 min
T1 construct: expressed in transfected cells
Method: (§1) Figure 3 Reactivity of the extracellular cysteine mutants with MTSET. (A) MTSET concentration-dependent inhibition of APP^+ uptake. The cells stably expressing C109A, Y107C/C109C, or S404C/C109A were incubated for 15 min with indicated concentrations of MTSET. The MTSET concentration giving half-maximal inhibition of APP^+ accumulation in the cells was used to calculate inactivation rate constants as plotted in (B). […] Representative images of APP^+ uptake by C109A, Y107C/C109A, or S404C/C109A under various MTSET concentrations were shown in Supplemental Figure S1. […] (B) Rate constants of MTSET inhibition of APP^+ uptake. At the half-maximal concentration, the half-time is the assay time (15 min) and the first-order rate constant is 7.7 × 10^−4 s^−1. […]
(A) MTSET concentration-dependent inhibition of APP^+ uptake. […] After washing to remove excess MTSET and ligands, APP^+ uptake was measured as described under “Materials and Methods”. […]
The cells stably expressing Y107C/C109A or S404C/C109A were preincubated with indicated ligands and MTSET at a concentration of 0.01 mM for Y107C/C109A or 0.002 mM for S404C/C109A at 22 °C for 15 min, respectively. […] APP^+ uptake was measured as described under “Materials and Methods”. […] Asterisks and hashtags indicate statistically significant changes (p < 0.05) in the accumulated APP^+ fluorescence compared with the corresponding control (MTSET alone). […]

[3] = target: T2, SERT S404C/C109A (Rattus norvegicus, UniProt P31652, C109A/S404C); experiment: as above; type: cell-based; settings: MTSET 0.002 mM, ligand 10 μM, 22 °C, 15 min
T2 construct: expressed in transfected cells
Method: as §1, with “uptake.” for “uptake. At the half-maximal concentration, the half-time is the assay time (15 min) and the first-order rate constant is 7.7 × 10^−4 s^−1.”
The cells stably expressing Y107C/C109A or S404C/C109A were preincubated with indicated ligands and MTSET at a concentration of 0.01 mM for Y107C/C109A or 0.002 mM for S404C/C109A at 22 °C for 15 min, respectively. […] APP^+ uptake was measured as described under “Materials and Methods”. […] Asterisks and hashtags indicate statistically significant changes (p < 0.05) in the accumulated APP^+ fluorescence compared with the corresponding control (MTSET alone).
Accessibility of the cysteine residues in the extracellular pathway was measured by reactivity of Y107C/C109A and S404C/C109A mutants with MTSET. […] The extent of APP^+ accumulated in the cells was determined by confocal imaging analysis in the live cells. […]

Row | effect of ligand on reactivity with MTSET [2] | effect of ligand on reactivity with MTSET [3] | Compound | APP+ fluorescence in the cells ([1]; 2 μM APP+) | ASP+ fluorescence retained in the cells ([1]; 10 μM ASP+)
1 |  |  | C[C@@H]1CC[C@@]2(OC1)O[C@H]1[C@@H](O)[C@H]3[C@@H]4CC[C@H]5C[C@@H](O[C@@H]6O[C@H](CO)[C@H](O[C@@H]7O[C@H](CO)[C@@H](O)[C@H](O[C@@H]8OC[C@@H](O)[C@H](O)[C@H]8O)[C@H]7O[C@@H]7O[C@H](CO)[C@H](O)[C@H](O[C@@H]8O[C@H](CO)[C@@H](O)[C@H](O)[C@H]8O)[C@H]7O)[C@H](O)[C@H]6O)[C@H](O)C[C@]5(C)[C@H]4CC[C@]3(C)[C@H]1[C@@H]2C [digitonin] | only a trace of APP^+ fluorescence detected | more than 60%
2 | markedly increased the reactivity | markedly increased the reactivity | Fc1ccc([C@@H]2CCNC[C@H]2COc2ccc3c(c2)OCO3)cc1 [paroxetine] |  | 

Source: publication PMC9503009, “Determining Ligand and Ion-Induced Conformational Changes in Serotonin Transporter with Its Fluorescent Substrates” (International Journal of Molecular Sciences, 2022)
